Assay results reported in publication PMC2365632.

Sequences of proteins named here, by UniProt entry; tags and fusion partners are left off.
UniProt P31390, whole entry: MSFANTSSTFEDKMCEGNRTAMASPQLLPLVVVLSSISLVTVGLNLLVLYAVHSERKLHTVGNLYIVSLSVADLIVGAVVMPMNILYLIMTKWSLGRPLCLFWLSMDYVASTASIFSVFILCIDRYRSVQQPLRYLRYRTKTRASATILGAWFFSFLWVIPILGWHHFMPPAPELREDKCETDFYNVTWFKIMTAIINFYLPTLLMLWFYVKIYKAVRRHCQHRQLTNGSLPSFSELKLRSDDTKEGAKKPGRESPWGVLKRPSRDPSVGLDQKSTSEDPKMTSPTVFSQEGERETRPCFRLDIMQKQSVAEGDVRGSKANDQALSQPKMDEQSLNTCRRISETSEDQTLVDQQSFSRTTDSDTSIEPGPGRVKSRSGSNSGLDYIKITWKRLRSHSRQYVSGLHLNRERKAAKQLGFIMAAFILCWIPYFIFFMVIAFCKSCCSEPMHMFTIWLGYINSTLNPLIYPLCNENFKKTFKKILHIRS

Biological target: T1, histamine H1 receptor (Rattus norvegicus, UniProt P31390)
T1 construct: gene Hrh1
Conditions: aorta

COc1ccc(CN(CCN(C)C)c2ccccn2)cc1 [pyrilamine]
Kb: 9.33 ± 0.34 pA2
